{
  "sequences": {"note": "Chains of the proteins cited; added tags and fusions are not shown.", "UniProt Q12884, whole entry": "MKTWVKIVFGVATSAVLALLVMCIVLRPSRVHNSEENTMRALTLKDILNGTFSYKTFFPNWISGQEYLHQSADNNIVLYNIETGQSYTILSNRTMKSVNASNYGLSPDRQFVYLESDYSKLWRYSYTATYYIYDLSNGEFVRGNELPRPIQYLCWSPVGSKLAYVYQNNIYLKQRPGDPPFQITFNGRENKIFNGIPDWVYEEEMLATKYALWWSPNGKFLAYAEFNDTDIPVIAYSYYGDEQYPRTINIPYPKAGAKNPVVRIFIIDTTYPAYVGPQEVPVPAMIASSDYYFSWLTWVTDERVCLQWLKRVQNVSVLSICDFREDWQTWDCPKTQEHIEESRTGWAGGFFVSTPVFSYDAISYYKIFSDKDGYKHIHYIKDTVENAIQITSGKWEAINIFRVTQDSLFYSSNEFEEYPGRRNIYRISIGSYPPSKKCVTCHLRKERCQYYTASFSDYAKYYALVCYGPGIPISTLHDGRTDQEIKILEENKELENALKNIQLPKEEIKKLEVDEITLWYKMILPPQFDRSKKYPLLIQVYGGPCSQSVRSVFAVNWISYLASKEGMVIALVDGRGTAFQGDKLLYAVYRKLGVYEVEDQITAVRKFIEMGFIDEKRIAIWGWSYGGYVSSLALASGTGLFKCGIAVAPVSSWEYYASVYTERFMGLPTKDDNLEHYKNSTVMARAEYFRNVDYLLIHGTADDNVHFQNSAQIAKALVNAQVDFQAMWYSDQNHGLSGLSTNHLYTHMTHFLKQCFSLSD"},
  "source": "patent EP4847497A1",
  "about": "“FIBROBLAST ACTIVATION PROTEIN-TARGETING MATERIAL BASED ON 3-STYRYLPYRIDINE STRUCTURE” (dated 2026)",
  "biological_target": "FAP (Homo sapiens, UniProt Q12884)",
  "assay": "In vitro FAP inhibitory activity, Ala-Pro-AMC substrate fluorescence assay",
  "data": [
    {"smiles": "N#CC1CCCN1C(=O)CNC(=O)c1ccc(/C=C/c2ccc(O)cc2)cn1", "note": "(centres unmarked)", "values": [
      {"measurement": "FAP inhibitory activity", "setting": "in words, compared with UAMC 1110", "value": "excellent FAP inhibitory activity similar to UAMC 1110"},
      {"measurement": "IC50", "setting": "substrate 2.5 µM, FAP 20 nM, pH 7.4", "value": 43, "unit": "nM"}
    ]}
  ]
}
